Results on 8 compounds are retold here after ChEMBL document CHEMBL4219151, “Piperidinyl Ureas Chemically Control Defective in Cullin Neddylation 1 (DCN1)-Mediated Cullin Neddylation” (J Med Chem, 2018).

By UniProt entry, the sequences of proteins in these tests, tags left out. Where a name states a change or a piece, a line headed by the entry shows the natural chain unless it says otherwise.
UniProt Q96GG9: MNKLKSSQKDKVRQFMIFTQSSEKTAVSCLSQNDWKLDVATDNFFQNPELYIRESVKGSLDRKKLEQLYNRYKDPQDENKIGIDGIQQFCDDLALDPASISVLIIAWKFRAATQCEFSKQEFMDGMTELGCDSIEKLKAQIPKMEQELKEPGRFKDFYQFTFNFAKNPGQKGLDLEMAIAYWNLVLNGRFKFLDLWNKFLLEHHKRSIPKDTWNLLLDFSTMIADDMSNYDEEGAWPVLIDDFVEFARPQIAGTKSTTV

Usually IC50 stands for the concentration needed to halve the response being measured. Low values mean inhibition by little substance, high ones a need for much substance.

For the assay, the target named is DCN1-like protein 1 (Homo sapiens, UniProt Q96GG9).
The compound `CCCC(=O)N1CCC(N(Cc2ccccc2)C(=O)Nc2cccc(C(F)(F)F)c2)CC1` gave an IC50 of 36 µM. The value for `Cc1ccc(CN2CCC(NC(=O)Nc3cccc(C(F)(F)F)c3)CC2)cc1` was 19 µM; that for `O=C(Nc1cccc(C(F)(F)F)c1)N(Cc1ccccc1)C1CCN(Cc2ccccc2)CC1` was 3.2 µM; that for `O=C(Nc1cccc(C(F)(F)F)c1)NC1CCN(Cc2cccc(Cl)c2)CC1` was 33 µM. `CCCCCCN1CCC(N(Cc2ccccc2)C(=O)Nc2cccc(C(F)(F)F)c2)CC1` displayed an IC50 of 1.1 µM. The value for `CCCCS(=O)(=O)N1CCC(N(Cc2ccccc2)C(=O)Nc2cccc(C(F)(F)F)c2)CC1` was 0.14 µM; that for `C=CC(=O)N1CCC(N(Cc2ccccc2)C(=O)Nc2cccc(C(F)(F)F)c2)CC1` was 36 µM; that for `O=C(Nc1cccc(S(F)(F)(F)(F)F)c1)NC1CCN(Cc2ccccc2)CC1` was 23 µM.
